How the values were obtained:
[1] = tested on: C57BL/6 mice spleen cells (responder population); assay type: cell-based
Murine Spleen Cells = assay: Primary in vitro immunization of murine spleen cells (Jerne plaque-forming-cell assay, sheep erythrocyte antigen); assay type: cell-based, mice; conditions: for PFC/ml / % POS: ShE +++; for % POS: percentage of positive control
[2] = tested on: spleen cells from OVA-FITC immunized mice; assay: In vitro proliferation ([3]H-thymidine) of spleen cells from OVA-FITC immunized mice; assay type: cell-based; conditions: for Mean Cunts Per Minute for Each Triplicate: FK-56 0 μg/ml
[3] = tested on: Bovine gut lamina proprial lymphocytes; assay: In vitro proliferation ([3]H-thymidine) of bovine gut lamina proprial lymphocytes; assay type: cell-based; conditions: for Mean Counts Per Minute for Each Triplicate: FK-565 0 μg/ml

## IL-2
[1]
  effect on one-way MLR: little, if any, effect
Murine Spleen Cells; added to splenocyte cultures at initiation
  formation of plaque-forming-cells (PFCs): augmented the formation of plaque-forming-cells (PFCs) in a dose dependent fashion
Murine Spleen Cells; rIL-2 0.1 ng/ml, day 3
  PFC/ml: 160 PFC/ml
  % POS: 128 % POS
Murine Spleen Cells; rIL-2 0.1 ng/ml, day 4
  PFC/ml: 3990 PFC/ml
  % POS: 130 % POS
Murine Spleen Cells; rIL-2 0.1 ng/ml, day 5
  PFC/ml: 1975 PFC/ml
  % POS: 56 % POS
Murine Spleen Cells; rIL-2 1 ng/ml, day 3
  PFC/ml: 930 PFC/ml
  % POS: 744 % POS
Murine Spleen Cells; rIL-2 1 ng/ml, day 4
  PFC/ml: 7720 PFC/ml
  % POS: 252 % POS
Murine Spleen Cells; rIL-2 1 ng/ml, day 5
  PFC/ml: 5125 PFC/ml
  % POS: 145 % POS
Murine Spleen Cells; rIL-2 10 ng/ml, day 3
  PFC/ml: 1840 PFC/ml
  % POS: 1472 % POS
Murine Spleen Cells; rIL-2 10 ng/ml, day 4
  PFC/ml: 9380 PFC/ml
  % POS: 307 % POS
Murine Spleen Cells; rIL-2 10 ng/ml, day 5
  PFC/ml: 7200 PFC/ml
  % POS: 204 % POS
[2]; IL-2 0.3 μg/ml, OVA-FITC 0 μg/ml
  Mean Cunts Per Minute for Each Triplicate: 15458 ± 788 CPM
[2]; IL-2 0.3 μg/ml, OVA-FITC 2.5 μg/ml
  Mean Cunts Per Minute for Each Triplicate: 40728 ± 2191 CPM
[2]; IL-2 0.3 μg/ml, OVA-FITC 5.0 μg/ml
  Mean Cunts Per Minute for Each Triplicate: 48726 ± 1660 CPM
[2]; IL-2 0.3 μg/ml, OVA-FITC 10.0 μg/ml
  Mean Cunts Per Minute for Each Triplicate: 69954 ± 2933 CPM
[2]; IL-2 0.6 μg/ml, OVA-FITC 0 μg/ml
  Mean Cunts Per Minute for Each Triplicate: 16645 ± 127 CPM
[2]; IL-2 0.6 μg/ml, OVA-FITC 2.5 μg/ml
  Mean Cunts Per Minute for Each Triplicate: 44010 ± 170 CPM
[2]; IL-2 0.6 μg/ml, OVA-FITC 5.0 μg/ml
  Mean Cunts Per Minute for Each Triplicate: 51233 ± 1926 CPM
[2]; IL-2 0.6 μg/ml, OVA-FITC 10.0 μg/ml
  Mean Cunts Per Minute for Each Triplicate: 45687 ± 3211 CPM
[2]; increasing concentrations of rIL-2 added to cultures, no antigen
  increase in CPM: 8 fold
[2]; rIL-2 added to cultures containing 5 μg/ml OVA-FITC
  increase over background CPM: 2.5 fold
[3]; 3.75 ng/ml rIL-2
  proliferation: nor did they respond
[3]; 30 ng/ml rIL-2
  proliferation: maximal proliferation even in the absence of FK-565
[3]; 15 or 30 ng/ml rIL-2
  proliferation: proliferation occurs
[3]; IL-2 15 ng/ml
  Mean Counts Per Minute for Each Triplicate: 22326 ± 4118 CPM
[3]; IL-2 30 ng/ml
  Mean Counts Per Minute for Each Triplicate: 97502 ± 1331 CPM
